In BindingDB's records for doi:10.1111/j.1749-6632.1998.tb10185.x (Albany Medical College, 1998) one finds Ki data, which are given here for two compounds.

For this test, the target named is T1, 5-hydroxytryptamine receptor 2C (Rattus norvegicus, UniProt P08909).
T1 sequence (P08909 whole entry): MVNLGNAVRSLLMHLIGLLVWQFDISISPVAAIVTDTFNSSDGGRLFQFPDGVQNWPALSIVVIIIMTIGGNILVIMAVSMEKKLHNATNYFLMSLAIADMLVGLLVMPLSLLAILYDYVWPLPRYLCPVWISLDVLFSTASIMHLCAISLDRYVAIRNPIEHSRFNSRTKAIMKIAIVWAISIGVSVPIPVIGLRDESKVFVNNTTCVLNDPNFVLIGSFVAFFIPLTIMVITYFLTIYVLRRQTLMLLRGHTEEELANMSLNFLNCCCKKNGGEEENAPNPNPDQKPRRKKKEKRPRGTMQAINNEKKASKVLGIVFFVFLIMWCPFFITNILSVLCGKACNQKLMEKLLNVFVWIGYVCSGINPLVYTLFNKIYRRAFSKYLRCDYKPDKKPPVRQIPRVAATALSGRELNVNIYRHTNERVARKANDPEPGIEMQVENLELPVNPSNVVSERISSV

Several values for one entry are separate records, joined by “and”; a condition that tells them apart may be missing. Equal values may be shown once.

What is called Ki is a measure of affinity in units of concentration, obtained from inhibition or displacement. Low readings indicate tighter binding, high ones weaker binding.

`COc1cc(CC(C)N)c(OC)cc1Br` (stereo not drawn) [2-(4-Bromo-2,5-dimethoxy-phenyl)-1-methyl-ethylamine((-)-DOB)] returned a Ki of 10 nM. That is a double-digit nanomolar value.
As to `CN1C[C@@H](NS(=O)(=O)N(C)C)C[C@@H]2c3cccc4c3c(cn4C)C[C@H]21` [MESULERGINE], the inhibition constant Ki was 2.7 nM and 0.9 nM.
